Literature values as cited in patent US11034935B2, “Liver organoid, uses thereof and culture method for obtaining them” (Koninklijke Nederlandse Akademie van Wetenschappen, priority 2010, dated 2021).

Biological target: T1, ALK5 (TGF-β R1) (Homo sapiens, UniProt P36897)
T1 sequence (P36897 34-503): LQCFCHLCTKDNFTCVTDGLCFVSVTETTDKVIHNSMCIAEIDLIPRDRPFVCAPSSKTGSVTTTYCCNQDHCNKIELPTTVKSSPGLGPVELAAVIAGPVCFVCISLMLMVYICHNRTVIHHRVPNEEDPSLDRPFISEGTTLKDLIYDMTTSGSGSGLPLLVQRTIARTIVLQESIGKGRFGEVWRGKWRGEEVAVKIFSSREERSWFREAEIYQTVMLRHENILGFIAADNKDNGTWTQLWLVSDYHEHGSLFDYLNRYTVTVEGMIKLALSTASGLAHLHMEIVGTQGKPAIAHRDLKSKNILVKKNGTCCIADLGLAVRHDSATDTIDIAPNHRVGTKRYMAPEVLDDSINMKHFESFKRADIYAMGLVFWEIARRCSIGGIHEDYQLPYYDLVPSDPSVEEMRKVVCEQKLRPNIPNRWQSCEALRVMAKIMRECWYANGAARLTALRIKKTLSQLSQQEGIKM
Details: at high concentrations, approximate 10 uM or more; cited from earlier work

## C[S+]([O-])c1ccc(-c2nc(-c3ccc(F)cc3)c(-c3ccncc3)[nH]2)cc1 (stereo not shown) [SB-203580]
  inhibition of ALK5: thought to inhibit ALK5
